# Reference: patent US9127024B2 (Intrexon Corporation, priority 2013, dated 2015)
# By UniProt entry, the sequences of proteins in these tests, tags left out. Residues count along the entry.
# UniProt O77240, 1-513: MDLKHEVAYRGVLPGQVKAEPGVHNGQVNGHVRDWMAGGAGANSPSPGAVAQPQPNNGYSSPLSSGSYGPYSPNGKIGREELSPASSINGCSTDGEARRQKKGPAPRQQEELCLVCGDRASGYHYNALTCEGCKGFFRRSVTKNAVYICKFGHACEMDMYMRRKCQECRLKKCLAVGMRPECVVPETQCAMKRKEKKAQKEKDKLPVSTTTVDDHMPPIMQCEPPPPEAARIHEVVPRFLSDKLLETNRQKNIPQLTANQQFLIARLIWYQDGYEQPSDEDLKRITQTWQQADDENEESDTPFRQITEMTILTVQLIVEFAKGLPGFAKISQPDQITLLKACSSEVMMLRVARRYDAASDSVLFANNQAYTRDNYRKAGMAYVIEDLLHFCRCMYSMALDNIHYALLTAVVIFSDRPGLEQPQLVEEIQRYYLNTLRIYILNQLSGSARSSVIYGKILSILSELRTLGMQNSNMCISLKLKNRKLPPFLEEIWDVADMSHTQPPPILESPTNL
# Biological target: RheoSwitch® (CHO-K1_RS-1 cells, firefly Luciferase reporter) (Choristoneura fumiferana, UniProt O77240)
# Assay: in vitro gene switch assay (fLUC Luciferase expression, potency screen)
# Assay type: cell-based
# Details: read-out: fLUC assay EC50, 24 hours with compound, 25 μM to 2.5 pM, figure in parentheses after a value not defined
# Method: Representative Compounds of the Disclosure were tested for biological activity in an in vitro gene switch assay (Tables 1 and 1A). Gene switch assays are disclosed, e.g., in U.S. Pat. Nos. 8,076,517; 7,456,315; 7,304,161; and 6,258,603.
# CHO-K1 cells were stably transfected with a plasmid (RS-1, FIG. 1) coding for firefly Luciferase (fLUC) under the control of the RheoSwitch® resulting in the stable cell line CHO-K1_RS-1. A master cell bank was created containing approximately 100 vials at 5×10^6 cells per vial. One vial of CHO-K1_RS-1 was thawed and cultured for two weeks prior to each in vitro potency screening.
# Twenty-four (24) hours prior to treatment with the control and test compounds the CHO-K1_RS-1 cells were seeded into white-opaque 384-well cell culture plates at 3,600 cells per well in 30 μl of culture medium. The cells were incubated in a humidified CO2 incubator at 37° C. until compound treatment.
# Compounds were prepared at 25 mM in 100% dry DMSO and stored at room temperature in sealed 1 ml tubes prior to subsequent dilution and assay. […]
# The cells were incubated with the compound for 24 hours in a humidified CO2 incubator at 37° C. […] The reagent was incubated with the cells for 10-120 minutes prior to reading on a Molecular Devices Spectramax L luminometer. […]
row,SMILES,EC50
1,[2H]C([2H])([2H])c1cc(C(=O)N(NC(=O)c2ccc3c(c2F)B(O)OC3)[C@@H](CC)C(C)(C)C)cc(C([2H])([2H])[2H])c1,803 nM
2,Cc1cc(C)cc(C(=O)N(NC(=O)c2ccc3c(c2C)OCCOB3O)C(C)(C)C(C)C)c1,222 nM
